Measurements as given in ChEMBL document CHEMBL4261574 (Medchemcomm, 2018).

Amino acid sequences for entries named in this document (tags omitted).
UniProt P23219, whole entry: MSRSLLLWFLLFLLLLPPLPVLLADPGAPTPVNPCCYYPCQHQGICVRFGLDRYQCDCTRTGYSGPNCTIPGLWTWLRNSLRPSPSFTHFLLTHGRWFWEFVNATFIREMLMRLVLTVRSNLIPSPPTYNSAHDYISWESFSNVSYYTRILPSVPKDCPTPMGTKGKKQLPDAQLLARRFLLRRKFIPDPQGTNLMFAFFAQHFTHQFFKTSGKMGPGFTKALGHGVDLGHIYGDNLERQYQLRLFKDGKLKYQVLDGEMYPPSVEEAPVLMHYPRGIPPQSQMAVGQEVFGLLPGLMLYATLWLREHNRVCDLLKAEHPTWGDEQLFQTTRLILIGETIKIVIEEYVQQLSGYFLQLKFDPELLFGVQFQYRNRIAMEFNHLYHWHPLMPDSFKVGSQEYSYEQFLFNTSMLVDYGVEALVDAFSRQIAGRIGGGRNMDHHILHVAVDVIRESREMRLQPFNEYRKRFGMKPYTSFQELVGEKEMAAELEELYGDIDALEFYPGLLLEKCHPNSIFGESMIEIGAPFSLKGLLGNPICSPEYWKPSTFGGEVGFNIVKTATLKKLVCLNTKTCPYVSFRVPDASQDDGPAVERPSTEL

Target: Prostaglandin G/H synthase 1 (Homo sapiens, UniProt P23219)

Q: How did the IC50 turn out when `Cc1onc(-c2ccccc2)c1-c1ccc(S(N)(=O)=O)cc1` [VALDECOXIB] was run?
A: 150 µM
